# From PubChem BioAssay (NCI)
#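 Where inhibition never reached the appropriate level, the endpoint shown equals the highest concentration tested. Otherwise, values were interpolated linearly from a five-concentration, 48-hour dose response in 96-well plates. GI50 = concentration required for 50% inhibition of growth. Definition used: TGI = concentration required for complete inhibition of growth.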
# Legend:
# Experiment in all cases: NCI tumour cell line growth inhibition, 48 h
# [1] = test system: 786-0 renal
# [2] = test system: A498 renal
# [3] = test system: A549 NSCLC
# [4] = test system: ACHN renal
# [5] = test system: CAKI-1 renal
# [6] = test system: CCRF-CEM leukemia
# [7] = test system: DLD-1 colon
# [8] = test system: DMS 114 small cell lung
# [9] = test system: DMS 273 small cell lung
# [10] = test system: EKVX NSCLC
# [11] = test system: HCC-2998 colon
# [12] = test system: HCT-116 colon
# [13] = test system: HCT-15 colon
# [14] = test system: HL-60(TB) leukemia
# [15] = test system: HOP-62 NSCLC
# [16] = test system: HOP-92 NSCLC
# [17] = test system: HT29 colon
# [18] = test system: IGROV1 ovarian
# [19] = test system: K-562 leukemia
# [20] = test system: KM12 colon
# [21] = test system: KM20L2 colon
# [22] = test system: LOX IMVI melanoma
# [23] = test system: M14 melanoma
# [24] = test system: M19-MEL melanoma
# [25] = test system: MALME-3M melanoma
# [26] = test system: MOLT-4 leukemia
# [27] = test system: NCI-H226 lung
# [28] = test system: NCI-H23 lung
# [29] = test system: NCI-H322M lung
# [30] = test system: NCI-H460 lung
# [31] = test system: NCI-H522 lung
# [32] = test system: OVCAR-3 ovarian
# [33] = test system: OVCAR-4 ovarian
# [34] = test system: OVCAR-5 ovarian
# [35] = test system: OVCAR-8 ovarian
# [36] = test system: RPMI-8226 leukemia
# [37] = test system: RXF 393 renal
# [38] = test system: SF-268 CNS
# [39] = test system: SF-295 CNS
# [40] = test system: SF-539 CNS
# [41] = test system: SK-MEL-2 melanoma
# [42] = test system: SK-MEL-28 melanoma
# [43] = test system: SK-MEL-5 melanoma
# [44] = test system: SK-OV-3 ovarian
# [45] = test system: SN12C renal
# [46] = test system: SNB-19 CNS
# [47] = test system: SNB-75 CNS
# [48] = test system: SNB-78 CNS
# [49] = test system: SW-620 colon
# [50] = test system: TK-10 renal
# [51] = test system: U251 CNS
# [52] = test system: UACC-257 melanoma
# [53] = test system: UACC-62 melanoma
# [54] = test system: UO-31 renal
compound,measurement,setting,value
C=C(C(=C)S(=O)(=O)c1ccc([N+](=O)[O-])cc1[N+](=O)[O-])S(=O)(=O)c1ccc([N+](=O)[O-])cc1[N+](=O)[O-],GI50,[1],18.6 µM
same,TGI,[1],40 µM
same,GI50,[2],17.8 µM
same,TGI,[2],34.3 µM
same,GI50,[3],21 µM
same,TGI,[3],49.8 µM
same,GI50,[4],12.7 µM
same,TGI,[4],25.9 µM
same,GI50,[5],14.5 µM
same,TGI,[5],33.7 µM
same,GI50,[6],1.54 µM
same,TGI,[6],6 µM
same,GI50,[7],8.82 µM
same,TGI,[7],66 µM
same,GI50,[8],15.3 µM
same,TGI,[8],43.4 µM
same,GI50,[9],17.4 µM
same,TGI,[9],52.4 µM
same,GI50,[10],29.3 µM
same,TGI,[10],63.2 µM
same,GI50,[11],20.1 µM
same,TGI,[11],38.9 µM
same,GI50,[12],11.8 µM
same,TGI,[12],39 µM
same,GI50,[13],2.99 µM
same,TGI,[13],16.3 µM
same,GI50,[14],2.98 µM
same,TGI,[14],10.5 µM
same,GI50,[15],25.7 µM
same,TGI,[15],49.1 µM
same,GI50,[16],17.3 µM
same,TGI,[16],35.9 µM
same,GI50,[17],9.5 µM
same,TGI,[17],36.8 µM
same,GI50,[18],21.3 µM
same,TGI,[18],45.3 µM
same,GI50,[19],3.19 µM
same,TGI,[19],15.4 µM
same,GI50,[20],13.5 µM
same,TGI,[20],30.2 µM
same,GI50,[21],16.9 µM
same,TGI,[21],56.8 µM
same,GI50,[22],3.27 µM
same,TGI,[22],23.4 µM
same,GI50,[23],11.9 µM
same,TGI,[23],29.2 µM
same,GI50,[24],12.5 µM
same,TGI,[24],51.2 µM
same,GI50,[25],17 µM
same,TGI,[25],57.1 µM
same,GI50,[26],5.19 µM
same,TGI,[26],26.9 µM
same,GI50,[27],23.6 µM
same,TGI,[27],56.1 µM
same,GI50,[28],17.1 µM
same,TGI,[28],54.8 µM
same,GI50,[29],23.2 µM
same,TGI,[29],57.2 µM
same,GI50,[30],18.3 µM
same,TGI,[30],46.9 µM
same,GI50,[31],3.05 µM
same,TGI,[31],9.76 µM
same,GI50,[32],5.48 µM
same,TGI,[32],55.5 µM
same,GI50,[33],15.2 µM
same,TGI,[33],52.5 µM
same,GI50,[34],19.8 µM
same,TGI,[34],35.3 µM
same,GI50,[35],3.32 µM
same,TGI,[35],32.5 µM
same,GI50,[36],3.42 µM
same,TGI,[36],27.1 µM
same,GI50,[37],2.41 µM
same,TGI,[37],8.65 µM
same,GI50,[38],13.3 µM
same,TGI,[38],49 µM
same,GI50,[39],15 µM
same,TGI,[39],34.3 µM
same,GI50,[40],7.33 µM
same,TGI,[40],43.2 µM
same,GI50,[41],20.7 µM
same,TGI,[41],66.7 µM
same,GI50,[42],16.1 µM
same,TGI,[42],56.5 µM
same,GI50,[43],16.2 µM
same,TGI,[43],33 µM
same,GI50,[44],24.8 µM
same,TGI,[44],40.3 µM
same,GI50,[45],15.9 µM
same,TGI,[45],46.8 µM
same,GI50,[46],21.1 µM
same,TGI,[46],48.9 µM
same,GI50,[47],14.2 µM
same,TGI,[47],49.4 µM
same,GI50,[48],19.1 µM
same,TGI,[48],72.9 µM
same,GI50,[49],6.49 µM
same,TGI,[49],32.5 µM
same,GI50,[50],18.2 µM
same,TGI,[50],33.3 µM
same,GI50,[51],14.6 µM
same,TGI,[51],30.4 µM
same,GI50,[52],10.4 µM
same,TGI,[52],26 µM
same,GI50,[53],12.3 µM
same,TGI,[53],35 µM
same,GI50,[54],17.9 µM
same,TGI,[54],32.3 µM
